For 45 compounds, inhibition results are on record in PubChem BioAssay AID588664 (The Scripps Research Institute Molecular Screening Center, 2011).

Sequences of proteins named here, by UniProt entry; tags and fusion partners are left off.
UniProt P00519, whole entry, looked up: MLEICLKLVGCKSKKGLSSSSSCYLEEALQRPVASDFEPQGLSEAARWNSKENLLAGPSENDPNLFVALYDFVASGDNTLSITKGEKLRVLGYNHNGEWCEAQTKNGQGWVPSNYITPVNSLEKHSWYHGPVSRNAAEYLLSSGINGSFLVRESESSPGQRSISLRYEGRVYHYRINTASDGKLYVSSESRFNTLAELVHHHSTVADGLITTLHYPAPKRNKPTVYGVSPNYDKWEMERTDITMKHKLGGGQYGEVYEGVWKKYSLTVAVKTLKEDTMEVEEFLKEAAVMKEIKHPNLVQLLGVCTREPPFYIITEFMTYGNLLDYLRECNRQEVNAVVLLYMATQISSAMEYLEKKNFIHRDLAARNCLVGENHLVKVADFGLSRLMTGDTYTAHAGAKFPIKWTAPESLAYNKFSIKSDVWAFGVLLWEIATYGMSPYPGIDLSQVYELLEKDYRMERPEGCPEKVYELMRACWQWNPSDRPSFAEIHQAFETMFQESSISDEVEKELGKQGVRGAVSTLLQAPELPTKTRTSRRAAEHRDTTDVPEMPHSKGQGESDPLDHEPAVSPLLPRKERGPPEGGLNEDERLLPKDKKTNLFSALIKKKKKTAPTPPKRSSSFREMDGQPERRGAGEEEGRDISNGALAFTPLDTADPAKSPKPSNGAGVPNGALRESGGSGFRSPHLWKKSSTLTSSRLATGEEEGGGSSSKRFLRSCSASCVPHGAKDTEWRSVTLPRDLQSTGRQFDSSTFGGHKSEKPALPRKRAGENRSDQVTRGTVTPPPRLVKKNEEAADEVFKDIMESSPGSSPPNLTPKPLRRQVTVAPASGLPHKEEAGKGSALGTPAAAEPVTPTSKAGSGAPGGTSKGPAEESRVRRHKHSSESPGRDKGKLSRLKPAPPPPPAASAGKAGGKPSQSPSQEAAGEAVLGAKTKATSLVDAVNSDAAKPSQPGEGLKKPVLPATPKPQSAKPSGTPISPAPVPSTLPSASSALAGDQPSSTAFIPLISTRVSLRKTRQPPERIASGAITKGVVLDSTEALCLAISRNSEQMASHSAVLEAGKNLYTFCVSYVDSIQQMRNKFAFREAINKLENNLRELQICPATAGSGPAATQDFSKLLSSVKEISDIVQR
UniProt Q13671, whole entry, looked up: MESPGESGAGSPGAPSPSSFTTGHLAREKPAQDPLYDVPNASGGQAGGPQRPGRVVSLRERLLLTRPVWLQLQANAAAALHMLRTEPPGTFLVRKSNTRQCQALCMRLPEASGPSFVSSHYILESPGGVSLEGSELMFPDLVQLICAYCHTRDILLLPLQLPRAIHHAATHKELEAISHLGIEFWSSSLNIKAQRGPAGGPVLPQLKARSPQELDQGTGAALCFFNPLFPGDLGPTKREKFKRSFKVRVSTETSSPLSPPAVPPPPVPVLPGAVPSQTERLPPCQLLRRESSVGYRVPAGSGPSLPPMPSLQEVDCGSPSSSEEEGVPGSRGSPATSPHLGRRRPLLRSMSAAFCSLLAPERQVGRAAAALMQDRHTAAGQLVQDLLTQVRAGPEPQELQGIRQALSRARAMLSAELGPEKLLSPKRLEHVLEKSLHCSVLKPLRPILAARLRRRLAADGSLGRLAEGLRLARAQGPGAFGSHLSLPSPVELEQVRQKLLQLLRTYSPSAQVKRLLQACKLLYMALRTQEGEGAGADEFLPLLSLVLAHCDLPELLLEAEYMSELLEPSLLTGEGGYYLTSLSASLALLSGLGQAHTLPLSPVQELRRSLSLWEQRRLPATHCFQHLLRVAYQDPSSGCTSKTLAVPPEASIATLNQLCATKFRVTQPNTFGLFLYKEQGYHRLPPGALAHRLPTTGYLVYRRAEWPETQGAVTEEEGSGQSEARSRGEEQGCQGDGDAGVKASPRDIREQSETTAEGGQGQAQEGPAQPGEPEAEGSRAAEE

Only a part is listed here, and it is no random draw. Calls of active or inactive are those of the source. No stated cut-off is given here; in the data, active means inhibition above about 5% (passing the limit was not always enough); inactive means the rest.

This assay concerns the target Tyrosine-protein kinase ABL1 (Homo sapiens) + Ras and Rab interactor 1 (Homo sapiens) (UniProt P00519+Q13671). The assay is described as follows: disruptors of human Abl and Rin1 association – biochemical, TR-FRET, primary screen (AID 588664). Particulars: TR-FRET Rin1/Abl binding, at 7.35 µM, hits give high values. A general note: Time-resolved FRET reads energy transfer from a long-lived donor to a nearby acceptor.
One may read the inhibition as the change of the read-out against control, counted positive when it falls. For the compound `Cc1ccc(C(=O)NCC2(N(C)C)CCCCC2)o1`, the inhibition was inactive: -3.4%.
With `CCCOc1ccc(C(=O)NCC2(N(C)C)CCCCC2)cc1OC`, the inhibition is inactive: 6%.
The result for `COc1ccc(C(c2nnnn2C2CCCC2)N2CCC(n3c(=O)[nH]c4ccccc43)CC2)cc1` (stereo not given) reads inactive: 4.67%; that for `COc1ccc(CN(CCCl)CCCl)cc1Cl`, inactive: 3.6%.
The result for `CN(C)c1cccc(C(=O)NCC2(N3CCCCC3)CCCCC2)c1` reads inactive: -1.57%.
Take `CCCCn1nnnc1C(c1ccccc1OC(F)(F)F)N1CCC(n2c(=O)[nH]c3ccccc32)CC1` (stereo not given): the inhibition was inactive: 4.81%.
Turning to `CC(C)c1ccc(NC2CCN(C(=O)OC(C)(C)C)CC2)cc1`, the inhibition is inactive: -2.71%.
The result for `CCCCn1nnnc1C(c1ccnc2ccccc12)N1CCC(n2c(=O)[nH]c3ccccc32)CC1` (stereo not given) reads inactive: 5.95%.
For `COc1cc(OC)c(C(=O)NCC2(N(C)C)CCCCC2)cc1OC` the value was inactive: 2.65%.
For `CCC(c1nnnn1C(C)(C)C)N1CCC(n2c(=O)[nH]c3ccccc32)CC1` (stereo not given) the value was active: 18.6%.
With `O=C(NCC1(N2CCOCC2)CCCCC1)c1cc(F)c(F)cc1Cl`, the inhibition is inactive: -0.69%.
For `O=C(NCC1(N2CCOCC2)CCCCC1)c1cc2ccccc2o1` the value was inactive: -2.47%; for `O=C(NCC1(N2CCCCC2)CCCCC1)c1ccc(Cl)nc1`, inactive: 1.71%; for `O=c1[nH]c2ccccc2n1C1CCN(C(c2ccccc2OC(F)(F)F)c2nnnn2C2CCCCC2)CC1` (stereo not given), inactive: 9.78%.
In the case of `Cc1cc(C)cc(N(C(=O)c2ccccc2)C2CCN(C(=O)OC(C)(C)C)CC2)c1`, the inhibition is inactive: 6.61%.
`CCOC(=O)N1CCC(Nc2ccc(OC)cc2)CC1`: the inhibition was inactive: -0.48%.
The result for `CCCCn1nnnc1C(c1ccc(OC)cc1)N1CCC(n2c(=O)[nH]c3ccccc32)CC1` (stereo not given) reads inactive: 6.4%; that for `O=C(NCC1(N2CCCCC2)CCCCC1)c1ccc(Cl)s1`, inactive: -0.77%; that for `N#CC1(Nc2ccccc2)CCN(Cc2ccccc2)CC1`, inactive: -4.02%.
For `O=c1[nH]c2ccccc2n1C1CCN(C(c2cc3ccccc3o2)c2nnnn2C2CCCCC2)CC1` (stereo not given) the value was active: 22.7%; for `O=C(OC1CN2CCC1CC2)C1c2ccccc2Oc2ccccc21` (stereo not given), inactive: 0.21%; for `COc1ccc(Cl)cc1C(=O)NCC1(N2CCOCC2)CCCCC1`, inactive: 0.83%.
Turning to `O=C(NCC1(N2CCCCC2)CCCCC1)c1ccc(=O)[nH]c1`, the inhibition was inactive: -1.29%.
For `CCCCn1nnnc1C(CC)N1CCC(n2c(=O)[nH]c3ccccc32)CC1` (stereo not given) the value was inactive: 5.14%.
`O=C(NCC1(N2CCCCC2)CCCCC1)c1cccs1`: the inhibition was inactive: 0%.
Take `CCCCn1nnnc1C(c1cccs1)N1CCC(n2c(=O)[nH]c3ccccc32)CC1` (stereo not given): the inhibition is inactive: 7.06%.
As for `COc1ccc(C(=O)NCC2(N3CCCCC3)CCCCC2)cc1`, the inhibition is inactive: -0.53%.
`COc1ccc(C(=O)NCC2(N3CCCCC3)CCCCC2)c(OC)c1OC`: the inhibition was inactive: 0.88%.
For `CC(C)(C)OC(=O)N1CCC(N(C(=O)c2ccccc2)c2ccc(F)cc2)CC1` the value was inactive: 0.16%; for `CCC(c1nnnn1C1CCCC1)N1CCC(n2c(=O)[nH]c3ccccc32)CC1` (stereo not given), active: 19.8%.
For `CSc1ccccc1C(=O)NCC1(N2CCCCC2)CCCCC1` the value was inactive: -2.57%.
The result for `Cc1cccc(NC2(C#N)CCN(Cc3ccccc3)CC2)c1` reads inactive: 2.34%; that for `O=c1[nH]c2ccccc2n1C1CCN(C(c2ccccc2)c2nnnn2C2CCCCC2)CC1` (stereo not given), inactive: 14.4%.
For the compound `O=c1[nH]c2ccccc2n1C1CCN(C(c2cccc3ccccc23)c2nnnn2C2CCCC2)CC1` (stereo not given), the inhibition was inactive: 1.75%.
With `CCOC(=O)N1CCC(Nc2cccc(C)c2)CC1`, the inhibition is inactive: -1.78%.
As to `COc1cc(C(=O)NCC2(N(C)C)CCCCC2)ccc1OC(F)F`, the inhibition is inactive: -1.53%.
With `CCOc1ccc(C)cc1CN(CCCl)CCCl`, the inhibition is inactive: -0.92%.
The result for `CC(C)(C)n1nnnc1C(c1ccccc1)N1CCC(n2c(=O)[nH]c3ccccc32)CC1` (stereo not given) reads inactive: 3.57%.
The result for `O=C1CCN(Cc2ccccc2)CC1` reads inactive: 2.9%.
The result for `CCCCOc1ccc(C(=O)NCC2(N3CCOCC3)CCCCC2)cc1` reads inactive: 3.68%; that for `CCCCn1nnnc1C(c1cc2ccccc2o1)N1CCC(n2c(=O)[nH]c3ccccc32)CC1` (stereo not given), inactive: 6.98%.
For `O=P1(N(CCCl)CCCl)SCCCS1`, the inhibition was inactive: 4.26%.
The result for `O=C(NCC1(N2CCCCC2)CCCCC1)c1ccc(F)cc1` reads inactive: -1.38%; that for `CCOC(=O)N1CCC(Nc2ccc(F)cc2)CC1`, inactive: -0.15%.
For `COc1ccc(NC2CCN(CCc3ccccc3)CC2)c(OC)c1` the value was inactive: 3.31%.
